Each structure is given as a SMILES string. Where only a bound is given, the exact number is not on record here.

One assay has as its system IL-6. Briefly: HEK-Blue colorimetric reporter cell line, IL-6 signaling. The note with it: 1 µM drug, signaling inducer after 6 hours, measured at OD630mm; FIG. 1. The method, then: (§1) HEK293 cell lines (Promega) having genes with a colorimetric function inserted into respective signaling promoters of TNF-α, IL-2, IL-4/13, IL-6, IL-12, IL-17, and IL-23 were purchased. The degree of signaling in each cell line may be measured based on the degree to be developed in blue when each signaling was induced.
(§2) Each HEK-Blue cell line was treated with a drug of 1 µM ABT-751 or 1 µM TN-16, and then after 6 hours, a signaling inducer was treated to each cell line.

Another assay deals with IL-17. Briefly: HEK-Blue colorimetric reporter cell line, IL-17 signaling. Particulars: 1 µM drug, signaling inducer after 6 hours, measured at OD630mm; FIG. 1. How it is done:
as §1, §2

For the next assay, the system named is MMP-1. Kind of assay: UV-induced MMP expression in NHEK cells, qPCR. Particulars: compared to the control group irradiated with only UV; UV 30 minutes after application; 'mostly' reduced; FIG. 2. The method, then: (§3) The human NHEK cells were applied with ABT-751 or TN-16, respectively, and irradiated with UV light after 30 minutes to induce photoaging. For comparison and verification of ABT-751 or TN-16, an untreated negative control group and a positive control group irradiated only with UV-A were reflected in the experiment.
(§4) RNA was extracted from skin cells after application and UV irradiation experiment completion. After reverse transcription of the extracted RNA into cDNA, the amounts of MMP-1, MMP-3, and MMP-9 present in skin tissue were measured using a real-time PCR machine by a quantitative PCR (qPCR) method.
(§5) Specifically, a photoaging inhibitory effect of ABT-751 or TN-16 was measured through changes in the expression levels of Matrix Metalloproteinase (MMP) proteins as described above. That is, the expression levels of the MMP proteins were measured in each of a control group irradiated with only UV and an experimental group irradiated with UV after applying ABT-751 or TN-16, respectively, to measure the degree of inhibiting the expression levels of MMP proteins by applying ABT-751 or TN-16, respectively.
On the technique in general: Quantitative PCR measures a nucleic acid by following its amplification.

The next assay relates to MMP-9. Briefly: UV-induced MMP expression in NHEK cells, qPCR. Particulars: compared to the control group irradiated with only UV; UV 30 minutes after application; 'mostly' reduced; FIG. 2. How it is done:
as §3, §4, §5

Another assay concerns MMP-3. Briefly: UV-induced MMP expression in NHEK cells, qPCR. Particulars: compared to the control group irradiated with only UV; UV 30 minutes after application; 'mostly' reduced; FIG. 2. How it is done:
as §3, §4, §5

The subject of assay [1] is ZO-1. Kind of assay: Tight junction protein expression in NHEKs, Western blot. Particulars: 1 µM, after 24 hours, compared to the control group; FIG. 5B. The method, then: (§6) In addition, intracellular proteins were extracted from NHEKs coated with 1 µM concentration of ABT-751 or TN-16, respectively, after 24 hours. The expression levels of Claudin-1, ZO-1, and Occludin proteins present in skin cells among the extracted proteins were measured using Western blot.
(§7) A portion of the collected tissue was homogenized using a tissue homogenizer (Daihan Science Co.), lysed using a cell lysis buffer (RIPA buffer, Invitrogen), and centrifuged using a centrifuge (Labogene), and the supernatant was transferred to a new tube to be used as a protein sample.
(§8) 30 µg of protein samples was loaded onto a PAGE gel (Invitrogen) with a concentration gradient of 4% to 12%, and SDS-PAGE was performed using a running buffer (Invitrogen) and an electrophoresis device (Bio-Rad) to separate the proteins by molecular weight. The separated proteins were transferred to a PVDF thin film (Bio-Rad) and then blocked with a 5% blocking solution (Skim milk; BD).
(§9) The thin film was reacted with claudin-1, ZO-1, occludin antibody (Santa Cruz), or Actin antibody (Abcam) for 16 hours, washed, and then reacted again with a secondary antibody for 1 hour and washed.
(§10) The thin film was reacted with an ECL solution (Thermo Fisher), and then the reacted protein was detected using a luminescence measuring instrument (Fusion Solo, Vilber).
In general terms: Immunoblotting shows a protein as a band on a membrane.

The test system of assay [2] is Occludin. The description is as above. Particulars: 1 µM, after 24 hours, compared to the control group; FIG. 5B. The method, then: as §6, §7, §8, §9, §10
In assay [3] the test system is Claudin-1. The description is as above. Particulars: 1 µM, after 24 hours, compared to the control group; FIG. 5B. The method, then:
as §6, §7, §8, §9, §10

A further assay concerns NF-κB. Briefly: NF-κB promoter luminescent reporter assay in HEK cells induced with TNF-α. Particulars: 1.0 µM, 24 hours of drug treatment, compared with TPCA1, FIG. 3. The method, then: In the experiment, biochemical changes in cells were confirmed through treatment of HEK293 cell lines with ABT-751 or TN-16 to test the inflammatory response.
A human embryonic kidney cell line (HEK) was inserted with a lucifer luminescent gene having an NFkb promoter using a Fugene4K reagent (Promega), and then treated with TNF-α after 6 hours to induce inflammation and NfKb signaling. After 18 hours, ABT-751 or TN16 was treated at a concentration of 1.0 µM.
After 24 hours of drug treatment, an Nfkb signaling mechanism inhibition effect according to treatment of each tubulin inhibitor was measured using a kit (Promega) for measuring the level of lucifer luminescence, and the results were shown in FIG. 3.
In general terms: In a reporter assay the amount or activity of a reporter protein is the signal.

Another assay has as its system TNF-α. Kind of assay: HEK-Blue colorimetric reporter cell line, TNF-α signaling. Particulars: 1 µM drug, signaling inducer after 6 hours, measured at OD630mm; FIG. 1. How it is done:
as §1, §2

Assay [4] deals with normal human epidermal keratinocyte (NHEK). Kind of assay: Skin cell differentiation, phase-contrast microscopy. Particulars: 1 µM, day 5 of differentiation, compared to an untreated control group; FIG. 4. The method, then: After applying ABT-751 or TN-16 using a normal human epidermal keratinocyte (NHEK), the degree of skin cell differentiation was observed and compared with the control group.
The cells were treated with ABT-751 or TN-16 at a concentration of 1 µM, respectively, and then the degree of skin cell differentiation was observed daily using a phase-contrast microscope.

The test system of a further assay is Tyrosinase. Briefly: In vitro tyrosinase activity inhibition experiment. Particulars: 1.0 µM, 2 mM L-tyrosine substrate, 37°C, absorbance at 490 nm; FIG. 6. The method, then: This test was a method for evaluating the degree of inhibiting tyrosinase activity in vitro.
The whitening effect of ABT-751 or TN-16 was confirmed by measuring the effect through an in vitro tyrosinase activity inhibition experiment during in vivo experiments. Kojic acid, known to inhibit the tyrosinase activity, was used as a comparative group.
Through the tyrosinase activity inhibition experiment, ABT-751 or TN-16 was treated to a concentration of 1.0 µM in a 2 mM L-tyrosine substrate and measured at 490 nm absorbance, and then added with tyrosinase and reacted at 37°C. After measuring the absorbance at 490 nm again, the absorbance value was calculated to determine the degree to inhibit the tyrosinase activity of ABT-751 or TN-16.

A further assay concerns IL-23. Kind of assay: HEK-Blue colorimetric reporter cell line, IL-23 signaling. The note with it: 1 µM drug, signaling inducer after 6 hours, measured at OD630mm; FIG. 1. The method, then: as §1, §2
Assay [5] has as its system ZO-1. Briefly: Tight junction expression in NHEKs, RT-qPCR. Particulars: 1 µM, after 6 hours, compared to the control group; FIG. 5A. The method, then:
(§11) To confirm whether the tubulin inhibitor of the present disclosure was involved in tight junctions, the expression levels of Claudin-1, ZO-1, and Occludin were measured using reverse transcription real-time polymerase chain reaction (RT-qPCR).
(§12) Intracellular RNA was extracted from NHEKs coated with 1 µM concentration of ABT-751 or TN-16, respectively, after 6 hours using an RNeasy mini kit (Qiagen). After reverse transcription of the extracted RNA into cDNA using an ImProm-II™ Reverse Transcription kit (Promega), the expression levels of Claudin-1, ZO-1, and Occludin present in skin cells were measured by a quantitative PCR (qPCR) method using the Real-Time PCR Detection System (Bio-Rad, CFX96).

Assay [6] has as its system Occludin. Briefly: Tight junction expression in NHEKs, RT-qPCR. The note with it: 1 µM, after 6 hours, compared to the control group; FIG. 5A. How it is done: as §11, §12
Assay [7] deals with Claudin-1. Briefly: Tight junction expression in NHEKs, RT-qPCR. The note with it: 1 µM, after 6 hours, compared to the control group; FIG. 5A. The method, then: as §11, §12

For the molecule `COc1ccc(S(=O)(=O)Nc2cccnc2Nc2ccc(O)cc2)cc1`, the “signaling of inflammatory cytokine IL-6” value with IL-6 is on record as “reduction”. For the same molecule, the “signaling of inflammatory cytokine IL-17” value with IL-17 is “reduction”. Besides, the “expression level of MMP-1” value in the assay with MMP-1 is no more than 50%. The “expression level of MMP-9” value in the assay with MMP-9 was no more than 50%. The “expression level of MMP-3” value in the assay on MMP-3 is recorded as no more than 50%. The “expression level of ZO-1 protein (Western blot)” value with ZO-1 [1] is reported as “increased”. Besides, in the assay on Occludin [2], the “expression level of Occludin protein (Western blot)” value was “increased”. Besides, the “expression level of Claudin-1 protein (Western blot)” value in the assay on Claudin-1 [3] was “increased”. Also, the NF-kB signaling result with NF-κB is reported as “inhibited NF-kB signaling similarly to TPCA1”. In the assay on TNF-α, the “signaling of inflammatory cytokine TNF-α” value is on record as “reduction”. Also, the “degree of skin cell differentiation” value in assay [4] is listed as “significantly increases”. Moreover, the “degree to inhibit the tyrosinase activity” value with Tyrosinase is recorded as “exhibited an effect of inhibiting melanin production”. The “signaling of inflammatory cytokine IL-23” value with IL-23 is “reduction”. The “expression level of ZO-1 (RT-qPCR)” value in the assay with ZO-1 [5] is given as “increased”. In addition, the “expression level of Occludin (RT-qPCR)” value with Occludin [6] is reported as “increased”. Also, the “expression level of Claudin-1 (RT-qPCR)” value with Claudin-1 [7] is recorded as “increased”.
Consider `CC(Nc1ccccc1)=C1C(=O)NC(Cc2ccccc2)C1=O` (centres unmarked), for which the “signaling of inflammatory cytokine IL-6” value in the assay with IL-6 is reported as “reduction”. Further, in the assay on IL-17, the “signaling of inflammatory cytokine IL-17” value is “reduction”. Further, in the assay with MMP-1, the “expression level of MMP-1” value is reported as no more than 50%. Besides, the “expression level of MMP-9” value in the assay with MMP-9 is recorded as no more than 50%. For the same molecule, the “expression level of MMP-3” value with MMP-3 was no more than 50%. The “expression level of ZO-1 protein (Western blot)” value in the assay on ZO-1 [1] is on record as “increased”. Further, the “expression level of Occludin protein (Western blot)” value in the assay on Occludin [2] was “increased”. The “expression level of Claudin-1 protein (Western blot)” value in the assay with Claudin-1 [3] is reported as “increased”. In the assay with NF-κB, the NF-kB signaling result is given as “inhibited NF-kB signaling similarly to TPCA1”. For the same molecule, in the assay on TNF-α, the “signaling of inflammatory cytokine TNF-α” value is given as “reduction”. The “degree of skin cell differentiation” value in assay [4] was “significantly increases”. Moreover, the “degree to inhibit the tyrosinase activity” value in the assay on Tyrosinase is given as “exhibited an effect of inhibiting melanin production”. The “signaling of inflammatory cytokine IL-23” value in the assay on IL-23 is “reduction”. In the assay with ZO-1 [5], the “expression level of ZO-1 (RT-qPCR)” value was “increased”. In addition, the “expression level of Occludin (RT-qPCR)” value in the assay on Occludin [6] is given as “increased”. In the assay on Claudin-1 [7], the “expression level of Claudin-1 (RT-qPCR)” value is on record as “increased”.

The values above are taken from patent EP4837581A1, “COMPOSITION COMPRISING TUBULIN INHIBITOR FOR PREVENTING OR TREATING SKIN DISEASES” (dated 2026).
